# Results taken from patent US12528818B2, “Compositions and methods for inhibition of RAS” (Leidos Biomedical Research, Inc., priority 2021, dated 2026).
# Tests used:
# [1] = molecular target: GppNHp-loaded KRAS4b (amino acids 1-169) G12C/C118S protein (Homo sapiens, UniProt P01116, C118S/G12C); assay: Covalent cysteine 12 modification by MALDI-TOF MS, GppNHp-loaded KRAS G12C; format: biochemical; conditions: 15 minutes reaction time, compound 95 or later using 1 μM proteins
# [2] = molecular target: T1, GTP-loaded KRAS4b (amino acids 1-169) G12C/C118S protein (Homo sapiens, UniProt P01116, C118S/G12C); assay: Covalent cysteine 12 modification by MALDI-TOF MS, GTP-loaded KRAS G12C; format: biochemical; conditions: 15 minutes reaction time, compound 95 or later using 1 μM proteins
# T1 construct: KRAS4b (amino acids 1-169) G12C/C118S protein; made in house
# [3] = molecular target: T2, Avi-KRAS G12C (1-169) GppNHp/RAF1 RBD-3xFLAG (52-151) (Homo sapiens, UniProt P01116, G12C); conditions: read-out: Raf1-GppNHp-KRAS G12C disruption; Raf1 RBD-KRAS G12C-GppNHp disruption assay IC50
# [4] = molecular target: GDP-loaded KRAS4b (amino acids 1-169) G12C/C118S protein (Homo sapiens, UniProt P01116, C118S/G12C); assay: Covalent cysteine 12 modification by MALDI-TOF MS, GDP-loaded KRAS G12C; format: biochemical; conditions: 15 minutes reaction time, compound 95 or later using 1 μM proteins
# [5] = molecular target: T2, Avi-KRAS G12C (1-169) GppNHp/RAF1 RBD-3xFLAG (52-151); assay: biochemical; conditions: Raf1-GppNHp-KRAS G12C disruption, Raf1 RBD-KRAS G12C-GppNHp disruption assay IC50
GppNHp-KRAS G12C percent of modification [1],GTP-KRAS G12C percent of modification [2],IC50 [3],GDP-KRAS G12C percent of modification [4],IC50 [5],Structure (SMILES)
A (percent of modification ≥70%),C (10%≤percent of modification <50%),< 500 nM,A (percent of modification ≥70%),,C=CC(=O)N1C[C@H](C)N(c2nc(OC[C@@]34CCCN3C[C@H](OC)C4)nc3c(F)c(-c4ccc(F)c5sc(N)nc45)c(C(F)(F)F)cc23)C[C@H]1C [Compound 297]
C (10%≤percent of modification <50%),,< 500 nM,C (10%≤percent of modification <50%),,"C=CC(=O)N1CCC[C@@H](N(C)c2nc(OC[C@@]34CCCN3C[C@H](F)C4)nc3c(F)c(-c4ccc(F)c5sc(N)nc45)c(Cl)cc23)C1 (atropisomer, axis not shown) [Compound 242]"
A (percent of modification ≥70%),A (percent of modification ≥70%),,A (percent of modification ≥70%),< 500 nM,"C=CC(=O)N1CC[C@@H](N(C)c2nc(OC[C@@]34CCCN3C[C@H](F)C4)nc3c(Cl)c(-c4ccc(F)c5sc(N)nc45)c(C(F)(F)F)cc23)C1 (single isomer, unassigned) [Compound 302]"
A (percent of modification ≥70%),A (percent of modification ≥70%),,A (percent of modification ≥70%),< 500 nM,C=CC(=O)N1CC[C@@H](N(C)c2nc(OC[C@@]34CCCN3C[C@H](F)C4)nc3c(F)c(-c4ccc(F)c5sc(N)nc45)c(C(F)(F)F)cc23)C1 [Compound 198]

# Continued, molecule first:
Structure (SMILES),GppNHp-KRAS G12C percent of modification [1],GTP-KRAS G12C percent of modification [2],IC50 [3],GDP-KRAS G12C percent of modification [4],IC50 [5]
"C=CC(=O)N1C[C@H](N(C)c2ncnc3c(F)c(-c4ccc(F)c5sc(N)nc45)c(C(F)(F)F)cc23)C2(CC2)C1 (atropisomer, axis not shown) [Compound 264]",D (percent of modification <10%),,> 20000 nM,D (percent of modification <10%),
C=CC(=O)N1CCC(N(C)c2nc(OC[C@@]34CCCN3C[C@H](F)C4)nc3c(C#N)c(-c4ccc(F)c5sc(N)c(C#N)c45)ccc23)[C@H]1C (some centres unmarked) [Compound 404],A (percent of modification ≥70%),A (percent of modification ≥70%),,A (percent of modification ≥70%),< 500 nM
C=CC(=O)N1CCC(N(C)c2nc(OC[C@@]34CCCN3C[C@H](F)C4)nc3c(Cl)c(-c4ccc(F)c5sc(N)c(C#N)c45)c(C#N)cc23)[C@H]1C (some centres unmarked) [Compound 425],D (percent of modification <10%),D (percent of modification <10%),,C (10%≤percent of modification <50%),500 to 5000 nM
C=CC(=O)N1C[C@@H](F)[C@@H](N(C)c2nc(OC[C@@H]3C[C@@H](F)CN3C)nc3cc(-c4ccc(F)c5sc(N)nc45)c(C(F)(F)F)cc23)C1 [Compound 355],B (50≤percent of modification <70%),C (10%≤percent of modification <50%),,A (percent of modification ≥70%),< 500 nM
C=CC(=O)N1[C@H](C)CN(c2nc(OC[C@@]34CCCN3C[C@H](F)C4)nc3c(F)c(-c4ccc(F)c5sc(N)c(C#N)c45)c(C(F)(F)F)cc23)C[C@H]1C [Compound 330],D (percent of modification <10%),D (percent of modification <10%),,C (10%≤percent of modification <50%),500 to 5000 nM
C=CC(=O)N1CC[C@@H](N(C)c2nc(OC)nc3c(F)c(-c4ccc(F)c5sc(N)c(C#N)c45)c(C(F)(F)F)cc23)C1 [Compound 384],C (10%≤percent of modification <50%),D (percent of modification <10%),,B (50≤percent of modification <70%),500 to 5000 nM
C=CC(=O)N1C[C@H](C)N(c2nc(N3CC(N4CC(OC)C4)C3)nc3c(F)c(-c4ccc(F)c5sc(N)c(C#N)c45)c(C(F)(F)F)cc23)C[C@H]1C [Compound 331],C (10%≤percent of modification <50%),D (percent of modification <10%),,B (50≤percent of modification <70%),< 500 nM
C=CC(=O)N1CCC(N(C)c2nc(OC[C@@H]3C[C@@H](OC)CN3C)nc3c(F)c(-c4ccc(F)c5sc(N)c(C#N)c45)c(C(F)(F)F)cc23)[C@H]1C (some centres unmarked) [Compound 407],C (10%≤percent of modification <50%),C (10%≤percent of modification <50%),,C (10%≤percent of modification <50%),< 500 nM
C=CC(=O)N1C[C@@H](F)[C@@H](N(C)c2nc(OC[C@@H]3CC4(CC4)CN3C)nc3cc(-c4ccc(F)c5sc(N)nc45)c(C(F)(F)F)cc23)C1 [Compound 351],A (percent of modification ≥70%),A (percent of modification ≥70%),,A (percent of modification ≥70%),< 500 nM

# Where two headings read alike, the source gives them in different places.
